Experimental data: patent US20150219632A1, “METHOD AND APPARATUS FOR SYSTEMATIC SINGLE CELL TRACKING OF DISTINCTIVE CELLULAR EVENTS” (published 2015)

Test system: HeLa cells
Assay: Long-term live cell imaging (DIC) with individual cell tracking and cell lineage database analysis of distinctive cellular events
[1] = HeLa, MNNG 1 μM, normalized by 200 progenitors
[2] = HeLa, non-cytotoxic dose of MNNG

methylnitronitrosoguanidine
Cytotoxicity conclusion for HeLa cells (1 μM MNNG): non-cytotoxic dose
Number of dead cells compared with control (HeLa, 1 μM MNNG): almost similar to that of control
Effect on cell growth rate (HeLa, 1 μM MNNG, FIG. 12B): did not show any effect
Prolongation of doubling time (HeLa, 1 μM MNNG, FIGS. 13A and 13B): no major prolongation
CD (cell death), % of Total DV (HeLa, MNNG 1 μM): 26.1 ± 4.2%
CF (cell fusion), % of Total DV (HeLa, MNNG 1 μM): 6.3 ± 2.3%
MD (multipolar division), % of Total DV (HeLa, MNNG 1 μM): 4.5 ± 0.2 %
Growth fold (cell number at T=900 divided by cell number at T=1) (HeLa, MNNG 1 μM, mean ± SD): 7.0 ± 0.5
CD (cell death), Total No. [1]: 273.4 ± 49.1
CF (cell fusion), Total No. [1]: 149 ·
Total DV (total cell division), Total No. [1]: 1983 ± 199
Cell fusion, % of total cell division events, change versus non-treated [2]: not changed
Total number of cell fusion events, change versus non-treated [2]: slightly increased
Multipolar events relative to non-treated cells (HeLa, non-cytotoxic dose of MNNG (1 μM)): about 1.7 times
Difference in % of multipolar division events compared to non-treated cells (HeLa, non-cytotoxic dose of MNNG, after normalization to total cell division): statistically significant difference
Effect on HeLa cell growth (non-cytotoxic dose of MNNG (1 μM), Table 1): slight promoting effect
